Experimental data: US20250084079A1, “COMPOSITIONS AND METHODS FOR INHIBITION OF RAS” (TheRas, Inc., priority 2022, published 2025)

Sequences of proteins named here, by UniProt entry; tags and fusion partners are left off. Residues count along the entry.
UniProt P01116, 1-169 isoform 2 limits assumed: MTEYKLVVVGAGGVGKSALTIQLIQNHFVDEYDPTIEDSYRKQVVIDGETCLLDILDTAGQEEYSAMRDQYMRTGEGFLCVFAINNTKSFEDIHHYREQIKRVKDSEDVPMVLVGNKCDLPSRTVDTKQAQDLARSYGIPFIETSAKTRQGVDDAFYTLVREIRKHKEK
UniProt P01116, 1-169 isoform 2 G12D limits assumed: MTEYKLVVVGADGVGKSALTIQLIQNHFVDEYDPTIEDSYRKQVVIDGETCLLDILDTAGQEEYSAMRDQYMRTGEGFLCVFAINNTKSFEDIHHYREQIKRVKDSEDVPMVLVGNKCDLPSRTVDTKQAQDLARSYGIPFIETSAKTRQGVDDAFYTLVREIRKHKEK
UniProt P01116, 1-169 isoform 2 G12V limits assumed: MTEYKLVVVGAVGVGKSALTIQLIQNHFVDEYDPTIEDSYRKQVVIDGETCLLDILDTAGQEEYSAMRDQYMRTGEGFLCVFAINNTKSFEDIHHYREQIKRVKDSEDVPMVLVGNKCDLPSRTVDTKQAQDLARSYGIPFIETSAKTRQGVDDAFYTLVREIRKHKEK
UniProt P01116, 1-169 isoform 2 G12D/Q25A limits assumed: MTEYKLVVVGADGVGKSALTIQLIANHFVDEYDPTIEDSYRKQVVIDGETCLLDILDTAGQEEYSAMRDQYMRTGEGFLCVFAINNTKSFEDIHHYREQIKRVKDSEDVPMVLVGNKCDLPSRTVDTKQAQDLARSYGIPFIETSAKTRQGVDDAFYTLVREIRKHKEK

What was measured:
[1] = target: Avi-KRAS G12D (1-169) GppNHp/RAF1 RBD-3xFLAG (52-151) (Homo sapiens, UniProt P01116, G12D); assay: RAS-effector PPI HTRF disruption assay, Raf1-GppNHp-KRAS G12D; conditions: read-out: Raf1-GppNHp-KRAS G12D disruption
Protocol: (§1) A protein:protein interaction (PPI) Homogeneous Time Resolved Fluorescence (HTRF) assay was used to determine the effectiveness of compounds of the present disclosure in disrupting KRAS protein and effector (RAF1 or PIK3 CA) binding.
(§2) The HTRF assay used the following reagents and proteins: (i) 375 nM Avi-KRAS G12D/Q25A (1-169) GppNHp/3×FLAG-PI3KCA (157-299); (ii) 100 nM Avi-KRAS G12D (1-169) GppNHp/RAF1 RBD-3×FLAG (52-151); (iii) 50 nM Avi-KRAS G12V (1-169) GppNHp/RAF1 RBD-3×FLAG (52-151); (iv) 50 nM Avi-KRAS WT (1-169) GppNHp/RAF1 RBD-3×FLAG (52-151); and (v) 35 nM Avi-PI3K RBD CA-3×FLAG; Assay Buffer: 50 mM Tris pH 7.5, 100 mM NaCl, 5 mM MgCl2, 0.1% BSA, 0.01% Tween, 1 mM TCEP, 10% DMSO; Bead Buffer: 50 mM Tris pH 7.5, 0.01% Tween 20; Assay volume: 20 μL (384 well plate-low volume format); and Compound titration: 100-0.02 μM, 3× dilution series.
(§3) The HTRF assay employed the following protocol:
(§4) Compounds were dispensed in assay plate (384-well, Grenier Bione #784075) using Echo (model 555) with dose response settings: 200 nL final volume, titration from 100 μM as a 10-point dilution series. Protein mix was prepared in assay buffer, and dispensed on plates, 10 μL per well, then incubated for 1 h at room temperature, with 700 rpm shaking. Reagents mix was prepared and dispensed on plates, 10 μL per well, then incubated for 1 h at room temperature, with 700 rpm shaking.
(§5) Plates were analyzed on an Envision plate reader using the following setting: Excitation 320 nm, Bandwidth […]; Emission 615 nm, Bandwidth […], Gain 100%, Flashes 100, Lag 60 μs. Data was reported as percentage of activity, with DMSO as 100%. Data was plotted and analyzed using Prism 8. The SPR Kd, biochemical Raf1-KRAS G12D/G12V/WT-GppNHP and PI3KCA-KRAS G12D/Q25A-GppNHp disruption assay IC50 of selected compounds described herein are shown in Table 4.

[2] = target: Avi-KRAS G12V (1-169) GppNHp/RAF1 RBD-3xFLAG (52-151) (Homo sapiens, UniProt P01116, G12V); assay: RAS-effector PPI HTRF disruption assay, Raf1-GppNHp-KRAS G12V; conditions: read-out: Raf1-GppNHp-KRAS G12V disruption
Protocol: as §1, §2, §3, §4, §5

[3] = target: Avi-KRAS WT (1-169) GppNHp/RAF1 RBD-3xFLAG (52-151) (Homo sapiens, UniProt P01116); assay: RAS-effector PPI HTRF disruption assay, Raf1-GppNHp-KRAS WT; conditions: read-out: Raf1-GppNHp-KRAS WT disruption
Protocol: as §1, §2, §3, §4, §5

[4] = test system: pERK in GP2d cells (KRAS G12D); assay: Cell-based pERK HTRF assay in GP2d cell; conditions: read-out: pERK-Gp2D-1 hr, 60 min incubation
Protocol: A pERK assay (Perkin Elmer) was used to determine the effectiveness of compounds in disrupting KRAS G12D protein/effector signaling in cells.
On Day 1, cells (GP2d) were seeded into 96-well plates at 3×10^4 cells/well in 80 μL complete growth media (DMEM, 10% FBS).
On Day 2, cells were treated with compounds at 0.25% DMSO. The source plate was created with compounds diluted in media at 5-fold the final assay concentration. The compounds were run in a 9-point concentration curve starting at 1 μM, with a half-log dilution between concentrations. 20 μL was transferred onto the cell plates (final volume in wells was 100 μL). Plates were harvested after 60 min incubation by aspirating media and adding kit-supplied 1× supplemented lysis buffer to all wells (50 μL per well). Plates were then placed on a plate shaker and incubated at 850 rpm for an additional 30 min.
Antibody mixture solution is prepared by diluting aliquoted d2 and Eu Cryptate antibodies 1:20 in kit supplied detection buffer, mix the diluted antibodies solutions (1:1 v:v). 4 μL of this solution is then added to a 384-well detection plate (Perkin Elmer; 6008230).
Samples were homogenized by pipetting up and down and then transferred (16 μL of cell lysates) from the 96-well cell culture plate to two wells of the HTRF 384-well detection plate containing the antibody solution. Plates were centrifuged (524 g for 1 min) and allowed to incubate between 4 and 24 h at room temperature. Maximum signal is reached after 4 h incubation time and remains stable over a period of 24 hours. Therefore, readings can be made between 4 and 24 h of incubation. Plates were centrifuged again (524 g for Imin), then analyzed on the EnVision plate reader using the following settings: Excitation 320 nm, Bandwidth 75 nm; Emission 615 nm, Bandwidth 85 nm; Gain 100%; Flashes 100; Lag 60 μs.

[5] = target: Avi-KRAS G12D/Q25A (1-169) GppNHp/3xFLAG-PI3KCA (157-299) (Homo sapiens, UniProt P01116, G12D/Q25A); assay: RAS-effector PPI HTRF disruption assay, PI3KCA-GppNHp-KRAS G12D/Q25A; conditions: read-out: PI3KCA-GppNHp-KRAS G12D/Q25A disruption
Protocol: as §1, §2, §3
Compounds were dispensed in assay plate (384-well, Grenier Bione #784075) using Echo (model 555) with dose response settings: 200 nL final volume, titration from 100 μM as a 10-point dilution series. […]
Plates were analyzed on an Envision plate reader using the following setting: Excitation 320 nm, Bandwidth […]; Emission 615 nm, Bandwidth […], Gain 100%, Flashes 100, Lag 60 μs. […] Data was plotted and analyzed using Prism 8. […]

Row | SMILES | IC50 [1] | IC50 [2] | IC50 [3] | IC50 [4] | IC50 [5]
1 | N#Cc1c(N)sc2c(F)ccc(-c3c(C(F)(F)F)cc4c(O[C@@H]5CCC6(CNC6)C5)nc(OC[C@@]56CCCN5C[C@H](F)C6)nc4c3F)c12 (atropisomer, axis not shown) [Compound 85] | > 10 µM | > 10 µM | > 10 µM | > 1 µM | –
2 | N#Cc1c(N)sc2c(F)ccc(-c3c(Cl)cc4c(O[C@H]5CCN[C@H]5CO)nc(OC[C@@]56CCCN5C[C@H](F)C6)nc4c3F)c12 | > 10 µM | > 10 µM | > 10 µM | > 1 µM | –
3 | N#Cc1c(N)sc2c(F)ccc(-c3ncc4c(O[C@H]5CNC[C@@H]5F)nc(OC[C@@]56CCCN5C[C@H](F)C6)nc4c3F)c12 | > 10 µM | > 10 µM | > 10 µM | > 1 µM | > 10 µM

The next lines start with the values.

Row | IC50 [1] | IC50 [2] | IC50 [3] | IC50 [4] | IC50 [5] | SMILES
4 | 0.1 to 1 µM | 1 to 10 µM | 0.1 to 1 µM | < 0.1 µM | – | N#Cc1c(N)sc2c(F)ccc(-c3c(C(F)(F)F)cc4c(O[C@H]5CNC[C@H]5F)nc(OC[C@@]56CCCN5C[C@H](F)C6)nc4c3F)c12
5 | > 10 µM | > 10 µM | > 10 µM | 0.1 to 1 µM | – | COC[C@@H]1C[C@@H](Oc2nc(OC[C@@]34CCCN3C[C@H](F)C4)nc3c(F)c(-c4ccc(F)c5sc(N)c(C#N)c45)c(C(F)(F)F)cc23)CN1 (atropisomer, axis not shown) [Compound 84]
